Laboratory results from patent US8772274B1, “Anti-cancer compositions and methods” (The Penn State Research Foundation, priority 2008, dated 2014).
Where a name gives a salt, the structure may show the parent alone.

Tested on: PI3 kinase/Akt3 and MAP kinase signaling in UACC 903 cells
Assay: Western blot analysis of melanoma cell lysates
Type: cell-based
Conditions: UACC 903, WM115 and 1205 Lu cells
Description: Melanoma cell line UACC 903 cells (1×10^6) are treated with increasing concentrations (7-21 μM) of PBIT and PBISe for 24 hours and cell lysates examined by Western blot analysis Cell lysates are harvested by addition of lysis buffer containing 50 mM HEPES (pH 7.5), 150 mM NaCl, 10 mM EDTA, 10% glycerol, 1% Triton X-100, 1 mM sodium orthovanadate, 0.1 mM sodium molybdate, 1 mM phenylmethylsulfonyl fluoride, 20 μg/ml aprotinin, and 5 μg/ml leupeptin. Whole cell lysates are centrifuged (≧10,000×g) for 10 minutes at 4° C. to remove cell debris. Protein concentrations are quantitated using the BCA assay (Pierce, Rockford, Ill.), and 30 μg of lysate loaded per lane onto NuPAGE Gels (Life Technologies, Carlsbad, Calif.). Following electrophoresis, samples are transferred to polyvinylidene difluoride membrane (Pall Corporation, Pensacola, Fla.). Blots are probed with antibodies to PRAS40 and phosphorylated PRAS40 (Thr246) (Invitrogen, Carlsbad, Calif.); antibodies to iNOS, cyclin D1, p27, p21, Erk2, α-enolase and secondary antibodies conjugated with horseradish peroxidase from Santa Cruz Biotechnology (Santa Cruz, Calif.); and antibodies to Akt3, phosphorylated-Akt (Ser473), phosphorylated-Erk 1/2 (Thr202/Tyr204), caspase-3 and cleaved PARP from Cell Signaling Technology (Danvers, Mass.). Immunoblots are developed using ECL (Pierce, Rockford, Ill.).

SMILES	pErk1/2
N=C(N)[Se]CCc1ccc(CC[Se]C(=N)N)cc1 [PBISe, s,s′-1,4-phenylene-bis(1,2-ethanediyl)bis-isoselenourea dihydrobromide]	increased
Br.Br.N=C(N)SCCc1ccc(CCSC(=N)N)cc1 [PBIT, s,s′-1,4-phenylene-bis(1,2-ethanediyl)bis-isothiourea dihydrobromide, reference compound]	increased
